Legend:
[1] = molecular target: Fibroblast growth factor receptor 2 (Homo sapiens) (UniProt P21802); assay: Selectivity interaction (KinomeScan (DiscoverX)) EUB0000699a FGFR2; conditions: at 10 µM
[2] = molecular target: Fibroblast growth factor receptor 4 (Homo sapiens, UniProt P22455); assay: Selectivity interaction (KinomeScan (DiscoverX)) EUB0000699a FGFR4; conditions: at 10 µM

Protein sequences, listed by entry. Tags and fused reporters are not part of them.
UniProt P21802, whole entry, looked up: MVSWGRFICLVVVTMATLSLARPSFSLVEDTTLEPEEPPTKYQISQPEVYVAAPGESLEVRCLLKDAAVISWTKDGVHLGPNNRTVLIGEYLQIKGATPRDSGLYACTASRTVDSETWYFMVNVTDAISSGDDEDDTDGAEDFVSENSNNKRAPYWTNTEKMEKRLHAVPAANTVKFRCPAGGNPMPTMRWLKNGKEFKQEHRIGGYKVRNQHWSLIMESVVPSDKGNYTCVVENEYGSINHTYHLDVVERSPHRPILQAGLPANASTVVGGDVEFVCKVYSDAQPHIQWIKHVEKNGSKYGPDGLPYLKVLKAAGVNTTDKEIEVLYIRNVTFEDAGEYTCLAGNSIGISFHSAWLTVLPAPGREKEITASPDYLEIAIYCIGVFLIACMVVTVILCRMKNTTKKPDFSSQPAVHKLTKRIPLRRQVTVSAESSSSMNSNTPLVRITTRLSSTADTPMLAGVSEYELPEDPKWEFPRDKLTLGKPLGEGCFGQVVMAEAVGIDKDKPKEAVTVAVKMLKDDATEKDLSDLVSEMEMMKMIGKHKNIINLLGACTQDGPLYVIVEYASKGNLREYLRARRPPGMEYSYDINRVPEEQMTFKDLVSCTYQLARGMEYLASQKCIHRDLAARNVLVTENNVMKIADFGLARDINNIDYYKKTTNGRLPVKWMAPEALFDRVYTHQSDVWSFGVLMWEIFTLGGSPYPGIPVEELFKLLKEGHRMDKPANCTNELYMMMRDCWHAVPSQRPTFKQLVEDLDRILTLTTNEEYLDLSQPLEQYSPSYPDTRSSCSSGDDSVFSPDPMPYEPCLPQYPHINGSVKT
UniProt P22455, whole entry, looked up: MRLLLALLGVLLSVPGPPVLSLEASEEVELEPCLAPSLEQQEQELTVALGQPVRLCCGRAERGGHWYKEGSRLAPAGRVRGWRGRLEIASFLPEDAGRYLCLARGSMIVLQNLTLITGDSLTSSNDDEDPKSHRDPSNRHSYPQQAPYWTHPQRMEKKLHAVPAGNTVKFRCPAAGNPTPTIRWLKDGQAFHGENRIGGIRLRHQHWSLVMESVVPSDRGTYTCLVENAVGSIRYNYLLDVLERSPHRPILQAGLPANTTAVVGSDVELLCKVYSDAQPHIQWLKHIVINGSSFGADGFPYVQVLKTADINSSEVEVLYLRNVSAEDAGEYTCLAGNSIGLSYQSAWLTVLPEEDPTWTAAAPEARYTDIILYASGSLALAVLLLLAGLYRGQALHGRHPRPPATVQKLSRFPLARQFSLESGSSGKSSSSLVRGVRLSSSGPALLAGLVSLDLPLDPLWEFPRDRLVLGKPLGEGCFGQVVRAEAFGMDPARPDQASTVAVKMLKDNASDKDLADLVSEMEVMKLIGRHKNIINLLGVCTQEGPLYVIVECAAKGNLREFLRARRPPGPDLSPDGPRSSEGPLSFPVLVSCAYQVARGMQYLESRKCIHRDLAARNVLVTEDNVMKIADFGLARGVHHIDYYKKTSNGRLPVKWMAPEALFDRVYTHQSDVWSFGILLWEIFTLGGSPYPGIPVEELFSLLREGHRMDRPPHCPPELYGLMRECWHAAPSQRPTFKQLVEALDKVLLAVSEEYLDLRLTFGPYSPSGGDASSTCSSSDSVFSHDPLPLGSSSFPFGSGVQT

A % of control [1] of 2.9% and a % of control [2] of 17% were found for CCN(CC)CCCCNc1ncc2cc(-c3cc(OC)cc(OC)c3)c(NC(=O)NC(C)(C)C)nc2n1 in this work.

— ChEMBL document CHEMBL5465560, “Selectivity Literature for EUbOPEN Chemogenomic Library” (2024)
